Test results from ChEMBL document CHEMBL4765410, “A cell-penetrant lactam-stapled peptide for targeting eIF4E protein-protein interactions” (Eur J Med Chem, 2020).

By UniProt entry, the sequences of proteins in these tests, tags left out.
UniProt P06730, whole entry: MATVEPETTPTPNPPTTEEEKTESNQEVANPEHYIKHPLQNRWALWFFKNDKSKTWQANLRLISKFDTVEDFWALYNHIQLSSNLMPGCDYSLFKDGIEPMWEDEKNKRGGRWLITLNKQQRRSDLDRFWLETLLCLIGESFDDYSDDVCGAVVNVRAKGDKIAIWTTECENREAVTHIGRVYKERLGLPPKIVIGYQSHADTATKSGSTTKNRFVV

Experiments:
[1] = molecular target: T1, Eukaryotic translation initiation factor 4E (Homo sapiens, UniProt P06730); test: Inhibition of recombinant human 10His-tagged eIF4E expressed in Escherichia coli BL21 (DE3) cells by catalytic enzyme-linked click chemistry assay
[2] = molecular target: T1, Eukaryotic translation initiation factor 4E; test: Binding affinity to recombinant human 10His-tagged eIF4E expressed in Escherichia coli BL21 (DE3) cells assessed as dissociation constant by surface plasmon resonance analysis

IC50 [1]: 60 nM | Kd [2]: 11 10^-3/s
SMILES: CC[C@H](C)[C@H](NC(=O)[C@H](CCCNC(=N)N)NC(=O)[C@@H](NC(=O)CNC(C)=O)[C@@H](C)O)C(=O)N[C@H](C(=O)N[C@@H](Cc1ccc(O)cc1)C(=O)N[C@@H](CC(=O)O)C(=O)N[C@@H](CCCNC(=N)N)C(=O)N[C@@H](CCCCN)C(=O)N[C@@H](Cc1ccccc1)C(=O)N[C@@H](CC(C)C)C(=O)N[C@@H](CCSC)C(=O)N[C@@H](CCC(=O)O)C(=O)N[C@@H](CS)C(=O)N[C@@H](CCCNC(=N)N)C(=O)N[C@@H](CC(N)=O)C(N)=O)[C@@H](C)CC
